Reference: US20030162220A1 (HARUO SUGIYAMA, published 2003)

Experiments:
[1] = target: T1, human WT1 interacting protein (WTIP) (human, UniProt O75400); assay: west western blot of K562 cell extract on PVDF, detected with anti-GST antibody
T1 construct: also called p115; about 115 kDa protein
Method: In order to investigate the presence of the WT1 interacting protein that can be detected with the GST fusion protein in the K562 cells, K562 (5×10⁶) was dissolved in 500 μl of the sample buffer for SDS-PAGE, and the west western blot was carried out.
After separating the sample protein on SDS-PAGE, it was transferred to a PVDF membrane (Immobilon-P, Millipore) by the semi-dry method, blocked with TBST (0.05% Tween 20) containing 2% skim milk, and was reacted with 10-20 μg/ml TBS for 1 hour to overnight.
After washing the PVDF membrane with TBST, it was reacted for 1 hour with a 1000-fold dilution of anti-GST antibody (Santa Cruz) in TBST, washed again in TBST, and then reacted for 1 hour with a 8000-fold dilution of anti-mouse IgG antibody (alkaline phosphatase (ALP)-conjugated, or horseradish peroxidase (HRP)-conjugated) in TBST. After washing in TBST and TBS, it was subjected to color development with a NBT/BCIP solution for the ALP-conjugated antibody, and was subjected to light emission with ECL for the HRP-conjugated antibody.

[2] = target: T2, WTIP 1-406, polypeptide containing the WW domain at the N-terminal end of WTIP with a histidine tag at the … (human, UniProt O75400 1-406); assay: west western blot of his-tagged WTIP fragments (E. coli lysate) probed with GST
T2 construct: Expressed in E. coli; whole-cell lysate run on SDS-PAGE and blotted; not shown: C-terminal his tag and XhoI junction residues from pET-21b(+)
T2 sequence: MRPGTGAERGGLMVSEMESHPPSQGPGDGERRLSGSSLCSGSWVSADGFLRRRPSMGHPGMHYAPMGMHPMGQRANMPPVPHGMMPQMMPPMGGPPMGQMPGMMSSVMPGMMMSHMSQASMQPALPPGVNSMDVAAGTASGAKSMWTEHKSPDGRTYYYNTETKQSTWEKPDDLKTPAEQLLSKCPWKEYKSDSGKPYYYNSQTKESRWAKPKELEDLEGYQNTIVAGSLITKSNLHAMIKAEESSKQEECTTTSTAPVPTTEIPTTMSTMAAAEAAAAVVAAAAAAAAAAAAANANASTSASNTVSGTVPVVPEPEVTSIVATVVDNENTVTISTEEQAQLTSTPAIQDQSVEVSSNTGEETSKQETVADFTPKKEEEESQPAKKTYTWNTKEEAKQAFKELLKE

B1: GST (glutathione S-transferase) alone (other, UniProt P08515 1-218, looked up)
chain: MSPILGYWKIKGLVQPTRLLLEYLEEKYEEHLYERDEGDKWRNKKFELGLEFPNLPYYIDGDVKLTQSMAIIRYIADKHNMLGGCPKERAEISMLEGAVLDIRYGVSRIAYSKDFETLKVDFLSKLPEMLKMFEDRLCHKTYLNGDHVTHPDFMLYDALDVVLYMDPMCLDAFPKLVCFKKRIEAIPQIDKYLKSSKYIAWPLQGWQATFGGGDHPPK
notes: Control probe in the west western blots
- binding result [1]: no binding
- binding result [2]: no binding
